Tests used:
PAK2 downstream proteins = PAK2 downstream proteins in IPF-derived fibroblasts
Procedure: Next, the antifibrotic effects of FRAX486 and FRAX597 on lung fibroblasts isolated from IPF lungs were evaluated. […] Furthermore, RT-PCR analysis confirmed the transcriptional inhibition of PAK2 downstream targets in IPF fibroblasts.

[1] = system: PAK2 and its downstream signals; test: Western blotting of PAK2 and its downstream signals in TGF-β-induced myofibroblasts; settings: 1,000 nM, 48 hours, in the presence of TGF-β1; Western blotting (FIG. 26)
Text: • [FIG. 1] An experimental workflow for spatial transcriptome analysis and scRNA-seq analysis of a human IPF lung. For the spatial transcriptome analysis, nine lung sections derived from three patients were used, and for the scRNA-seq analysis, three IPF lungs and three control lungs were used. • [FIG. 2] A spatial visualization image of fibroblastic foci (FF) annotation based on expression levels of COL1A1, POSTN, and CTHRC1 shown in each panel. […] A UMAP visualization image of an annotated interstitial scRNA-seq dataset from three IPF lung samples and three control lung samples, labeled with detailed cell types. • [FIG. 4] A violin plot showing expression of selected marker genes in each cluster. • [FIG. 5] A UMAP visualization image of the scRNA-seq dataset of FIG. 3 classified by origin from a normal lung or an IPF lung. • [FIG. 6] A bar graph comparing a composition of lung interstitial cell types between healthy subjects and IPF patients. • [FIG. 7] A result of pseudotime trajectory analysis predicting different differentiation trajectories of interstitial cells between healthy subjects and IPF patients. • [FIG. 8] An immunohistochemical image of PDGFRA, CTHRC1, and WNT5A in fibroblastic foci in IPF lung tissue. • [FIG. 9] A result of spatial visualization of FF and advanced fibrotic lesion (DF) annotation along an estimated cell type distribution on a Visium section. In a representative zoom-in image of a boundary box region showing hematoxylin and eosin (H&E) staining, FF and DF in IPF lung tissue are highlighted. • [FIG. 10] A result of 3D PCA mapping using 97 extracted FF spots and 412 extracted DF spots. • [FIG. 11] A dot plot showing what types of interstitial cells are present in FF, DF, and SMC regions selected on Visium by integrated analysis of single-cell data and spatial analysis data. • [FIG. 12] A spatial transcriptome spot (patient JKPF2-1) of an FF index. • [FIG. 13] A bar graph representing a ratio of a high FF index population and a low FF index population in an interstitial cell type. • [FIG. 14] A result of upstream regulator prediction by IPA for 746 differentially expressed genes between FF and DF. The top 10 upstream regulators predicted to be "activated" are shown. • [FIG. 15] A violin plot showing an average expression level of the top 10 upstream regulators detected in FIG. 14 in each cell type. • [FIG. 16] […] A violin plot showing expression of PAK2 in high FF index interstitial cells and low FF index interstitial cells. • [FIG. 19] A spatial visualization result of a PAK target gene signature and an estimated cell type distribution along the FF/DF annotation on a Visium section. • [FIG. 20] […] A quantitative immunoblot analysis result showing amounts of type I collagen and α-SMA. • [FIG. 26] […]

IPF lung fibroblasts = test: Antifibrotic effect on lung fibroblasts isolated from IPF lungs (immunoblot); settings: 1,000 nM, 48 hours; immunoblot (FIGS. 27 and 28)
Text: (§1) • [FIG. 1] An experimental workflow for spatial transcriptome analysis and scRNA-seq analysis of a human IPF lung. For the spatial transcriptome analysis, nine lung sections derived from three patients were used, and for the scRNA-seq analysis, three IPF lungs and three control lungs were used. • [FIG. 2] A spatial visualization image of fibroblastic foci (FF) annotation based on expression levels of COL1A1, POSTN, and CTHRC1 shown in each panel. […] A UMAP visualization image of an annotated interstitial scRNA-seq dataset from three IPF lung samples and three control lung samples, labeled with detailed cell types. • [FIG. 4] A violin plot showing expression of selected marker genes in each cluster. • [FIG. 5] A UMAP visualization image of the scRNA-seq dataset of FIG. 3 classified by origin from a normal lung or an IPF lung. • [FIG. 6] A bar graph comparing a composition of lung interstitial cell types between healthy subjects and IPF patients. • [FIG. 7] A result of pseudotime trajectory analysis predicting different differentiation trajectories of interstitial cells between healthy subjects and IPF patients. • [FIG. 8] […] A violin plot showing an average expression level of the top 10 upstream regulators detected in FIG. 14 in each cell type. • [FIG. 16] […] A quantitative immunoblot analysis result showing amounts of type I collagen and α-SMA. • [FIG. 26] […]

[2] = system: phosphorylated PAK2 (p-PAK2); test: p-PAK2 immunohistochemistry of lung sections of BLM-induced mice; settings: immunohistochemical analysis (FIG. 36)
Text: as §1

[3] = system: TGF-β-induced myofibroblast differentiation in lung fibroblasts; test: TGF-β-induced myofibroblast differentiation model of lung fibroblasts (immunoblot, immunofluorescence); settings: for TGF-β-induced myofibroblast differentiation based on the protein levels of α-smooth muscle actin (α-SMA) and type I collagen / dose dependence of the inhibitory effects on type I collagen and α-SMA: 100 nM and 1,000 nM; for TGF-β-induced myofibroblast differentiation based on the protein levels of α-smooth muscle actin (α-SMA) and type I collagen: 48 hours, in the presence of TGF-β1 (2 ng/mL), immunoblot (FIG. 24); for inhibitory effects compared with pirfenidone (PFD) and nintedanib (NTD): PFD and NTD as positive controls for inhibiting myofibroblast differentiation; for dose dependence of the inhibitory effects on type I collagen and α-SMA: quantitative immunoblot (FIG. 25)
Text: • [FIG. 1] An experimental workflow for spatial transcriptome analysis and scRNA-seq analysis of a human IPF lung. For the spatial transcriptome analysis, nine lung sections derived from three patients were used, and for the scRNA-seq analysis, three IPF lungs and three control lungs were used. • [FIG. 2] A spatial visualization image of fibroblastic foci (FF) annotation based on expression levels of COL1A1, POSTN, and CTHRC1 shown in each panel. […] A UMAP visualization image of an annotated interstitial scRNA-seq dataset from three IPF lung samples and three control lung samples, labeled with detailed cell types. • [FIG. 4] A violin plot showing expression of selected marker genes in each cluster. • [FIG. 5] A UMAP visualization image of the scRNA-seq dataset of FIG. 3 classified by origin from a normal lung or an IPF lung. • [FIG. 6] A bar graph comparing a composition of lung interstitial cell types between healthy subjects and IPF patients. • [FIG. 7] A result of pseudotime trajectory analysis predicting different differentiation trajectories of interstitial cells between healthy subjects and IPF patients. • [FIG. 8] An immunohistochemical image of PDGFRA, CTHRC1, and WNT5A in fibroblastic foci in IPF lung tissue. • [FIG. 9] A result of spatial visualization of FF and advanced fibrotic lesion (DF) annotation along an estimated cell type distribution on a Visium section. In a representative zoom-in image of a boundary box region showing hematoxylin and eosin (H&E) staining, FF and DF in IPF lung tissue are highlighted. • [FIG. 10] A result of 3D PCA mapping using 97 extracted FF spots and 412 extracted DF spots. • [FIG. 11] A dot plot showing what types of interstitial cells are present in FF, DF, and SMC regions selected on Visium by integrated analysis of single-cell data and spatial analysis data. • [FIG. 12] A spatial transcriptome spot (patient JKPF2-1) of an FF index. • [FIG. 13] A bar graph representing a ratio of a high FF index population and a low FF index population in an interstitial cell type. • [FIG. 14] A result of upstream regulator prediction by IPA for 746 differentially expressed genes between FF and DF. The top 10 upstream regulators predicted to be "activated" are shown. • [FIG. 15] A violin plot showing an average expression level of the top 10 upstream regulators detected in FIG. 14 in each cell type. • [FIG. 16] […] A violin plot showing expression of PAK2 in high FF index interstitial cells and low FF index interstitial cells. • [FIG. 19] A spatial visualization result of a PAK target gene signature and an estimated cell type distribution along the FF/DF annotation on a Visium section. • [FIG. 20] A dot plot showing expression of PAK family genes compared between interstitial cells of a normal lung sample and an IPF lung sample. • [FIG. 21] A result of hematoxylin and eosin (H&E) staining and immunohistochemical staining for PAK1, PAK2, and PAK3 in fibroblastic foci of IPF lung tissue. • [FIG. 22] A result showing an effect of siRNA-mediated PAK1/2 knockdown on TGF-β-induced myofibroblast differentiation in lung fibroblasts. […] A result of qPCR showing expression of WNT5A in PAK1- or PAK2-knockdown human lung fibroblasts after 48 hours of TGF-β1 (2 ng/mL) treatment. • [FIG. 24] A result showing an effect of PAK inhibitors FRAX486 and FRAX597 on TGF-β-induced myofibroblast differentiation in lung fibroblasts. […] Pirfenidone (PFD) and nintedanib (NTD) were used as positive controls for inhibiting myofibroblast differentiation. • [FIG. 25] A quantitative immunoblot analysis result showing amounts of type I collagen and α-SMA. • [FIG. 26] An immunoblot analysis result showing the amounts of PAK2 and its downstream signals in TGF-β-induced myofibroblasts treated with FRAX486 (1,000 nM) and FRAX597 (1,000 nM) for 48 hours in the presence of TGF-β1. • [FIG. 27] A result showing an effect of a PAK2 inhibitor on IPF lung fibroblasts. […]

[4] = system: bleomycin (BLM)-induced pulmonary fibrosis mouse model; test: Bleomycin (BLM)-induced pulmonary fibrosis mouse model
Text: • [FIG. 1] An experimental workflow for spatial transcriptome analysis and scRNA-seq analysis of a human IPF lung. For the spatial transcriptome analysis, nine lung sections derived from three patients were used, and for the scRNA-seq analysis, three IPF lungs and three control lungs were used. • [FIG. 2] A spatial visualization image of fibroblastic foci (FF) annotation based on expression levels of COL1A1, POSTN, and CTHRC1 shown in each panel. […] A UMAP visualization image of an annotated interstitial scRNA-seq dataset from three IPF lung samples and three control lung samples, labeled with detailed cell types. • [FIG. 4] A violin plot showing expression of selected marker genes in each cluster. • [FIG. 5] A UMAP visualization image of the scRNA-seq dataset of FIG. 3 classified by origin from a normal lung or an IPF lung. • [FIG. 6] A bar graph comparing a composition of lung interstitial cell types between healthy subjects and IPF patients. • [FIG. 7] A result of pseudotime trajectory analysis predicting different differentiation trajectories of interstitial cells between healthy subjects and IPF patients. • [FIG. 8] An immunohistochemical image of PDGFRA, CTHRC1, and WNT5A in fibroblastic foci in IPF lung tissue. • [FIG. 9] A result of spatial visualization of FF and advanced fibrotic lesion (DF) annotation along an estimated cell type distribution on a Visium section. In a representative zoom-in image of a boundary box region showing hematoxylin and eosin (H&E) staining, FF and DF in IPF lung tissue are highlighted. • [FIG. 10] A result of 3D PCA mapping using 97 extracted FF spots and 412 extracted DF spots. • [FIG. 11] A dot plot showing what types of interstitial cells are present in FF, DF, and SMC regions selected on Visium by integrated analysis of single-cell data and spatial analysis data. • [FIG. 12] […] A violin plot showing an average expression level of the top 10 upstream regulators detected in FIG. 14 in each cell type. • [FIG. 16] […] A quantitative immunoblot analysis result showing amounts of type I collagen and α-SMA. • [FIG. 26] […]

| SMILES | expression of PAK2 downstream proteins in IPF-derived fibroblasts (PAK2 downstream proteins) | expression and phosphorylation of PAK2, c-Abl, and LIMK1 [1] | expression and phosphorylation of SMAD2/3 [1] | expression of α-SMA and type I collagen in IPF-derived fibroblasts (IPF lung fibroblasts) | expression of phosphorylated PAK2 (p-PAK2) in the lungs of BLM-induced mice [2] | TGF-β-induced myofibroblast differentiation based on the protein levels of α-smooth muscle actin (α-SMA) and type I collagen [3] | inhibitory effects compared with pirfenidone (PFD) and nintedanib (NTD) [3] | immunofluorescence labeling of αSMA and type I collagen: effect on TGF-β-induced myofibroblast differentiation [3] | dose dependence of the inhibitory effects on type I collagen and α-SMA [3] | in vitro efficacy of FRAX486 relative to FRAX597 ([3]; summary of the in vitro results) | development of BLM-induced pulmonary fibrosis (hydroxyproline assay and Masson's trichrome staining) ([4]; intraperitoneal injection, left lung hydroxyproline (FIGS. 33 and 34)) | body weight of BLM-induced mice ([4]; intraperitoneal, from the 7th day after BLM treatment, day 21 levels comparable to control mice (FIG. 32)) | fibrotic lesions, quantification using an Ashcroft score ([4]; intraperitoneal, FIG. 35) |
| --- | --- | --- | --- | --- | --- | --- | --- | --- | --- | --- | --- | --- | --- |
| CCn1c(=O)c(-c2ccc(Cl)cc2Cl)cc2cnc(Nc3ccc(N4CCNCC4)c(F)c3)nc21 | significantly inhibited | suppressed | did not suppress | significantly reduced | significantly inhibited | strongly suppressed | significantly exceeded the effects of two antifibrotic drugs | inhibitory effects | dose-dependent | superior efficacy compared to FRAX597 | significantly reduced | restored | significant decrease |
| CCn1c(=O)c(-c2ccc(-c3cncs3)cc2Cl)cc2cnc(Nc3ccc(N4CCN(C)CC4)cc3)nc21 | significantly inhibited | suppressed | did not suppress | significantly reduced |  | strongly suppressed | significantly exceeded the effects of two antifibrotic drugs | inhibitory effects | dose-dependent |  |  |  |  |

— patent EP4840463A1, “THERAPEUTIC AGENT FOR IDIOPATHIC PULMONARY FIBROSIS” (dated 2026)
